Measurements reported in publication PMC3676426 (European journal of clinical pharmacology, 2013).

Assay type: in vivo, human
Conditions: atorvastatin 40 mg for five days, CGC/CGC, CGC/TTT

CC(C)c1c(C(=O)Nc2ccccc2)c(-c2ccccc2)c(-c2ccc(F)cc2)n1CC[C@@H](O)C[C@@H](O)CC(=O)O [Atorvastatin, atorvastatin]
influence of ABCB1 diplotype on pharmacokinetic parameters: did not differ significantly
